Assay results: US6727263B2, “Indole and 2,3-dihydroindole derivatives, their preparation and use” (H. Lundbeck A/S, priority 1997, dated 2004)

Test system: 3H-5-HT uptake into whole rat brain synaptosomes
Assay: Inhibition of 3H-5-HT uptake into rat brain synaptosomes
Format: biochemical
Details: 3H-5-HT accumulation into whole rat brain synaptosomes, in vitro; read-out: Inhibition of serotonin reuptake IC50
Description: Inhibition of ^3H-5-HT Uptake Into Rat Brain Synaptosomes
Using this method the ability of drugs to inhibit the accumulation of ^3H-5-HT into whole rat brain synaptosomes is determined in vitro.

IC50: 0.29 nM
SMILES: Fc1ccc([C@@H]2CCNC[C@H]2COc2ccc3c(c2)OCO3)cc1 [Paroxetine, reference compound]
